A short description of the test: Compound was tested for inhibition of [3H]dihydroalprenolol radioligand binding to Beta-1 adrenergic receptor in dog heart.

The compound `C=CCc1ccccc1OC[C@@H](O)CNC(C)C` [ALPRENOLOL,(-)] had an IC50 of 4.9 nM.

Values taken from BindingDB's records for doi:10.1021/jm00350a009 (1982).
